Protein sequences, listed by entry. Tags and fused reporters are not part of them.
UniProt P24468, whole entry: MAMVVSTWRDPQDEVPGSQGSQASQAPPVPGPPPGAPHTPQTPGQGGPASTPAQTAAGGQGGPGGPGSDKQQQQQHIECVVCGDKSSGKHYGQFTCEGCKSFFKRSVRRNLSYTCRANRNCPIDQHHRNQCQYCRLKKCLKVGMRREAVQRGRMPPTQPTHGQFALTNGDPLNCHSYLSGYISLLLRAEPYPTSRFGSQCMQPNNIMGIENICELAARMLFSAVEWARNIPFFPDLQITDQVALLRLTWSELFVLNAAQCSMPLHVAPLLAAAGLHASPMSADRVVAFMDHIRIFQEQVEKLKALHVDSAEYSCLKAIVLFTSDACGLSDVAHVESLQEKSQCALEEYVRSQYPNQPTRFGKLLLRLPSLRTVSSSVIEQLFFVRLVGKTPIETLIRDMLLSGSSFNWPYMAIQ

Only a part is listed here, and it is no random draw. Active and inactive are the calls of the source.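 Rule for the calls: active = mean inhibition over three repeats above a set limit taken from the earlier primary screen (cut at about 38% in these data); inactive = the rest.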
These molecules were tested against COUP transcription factor 2 (Homo sapiens) (UniProt P24468) (assay: NR2F2 transcriptional activity inhibitors, confirmation, cell-based, luciferase reporter, HEK293, triplicate (AID 687008;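 note: 100% = cells given the luciferase reporter alone without the COUP-TF2 vector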)). Details: HEK293 NGFI-A luciferase reporter, luminescence; at 8.5 µM; stronger effect = higher value.
`O=[N+]([O-])c1cc([N+](=O)[O-])c(Nc2ccc(Cl)cc2)c([N+](=O)[O-])c1` was tested, and the inhibition was inactive: 19.2%.

Source: PubChem BioAssay AID687008 (The Scripps Research Institute Molecular Screening Center, 2013)
